Measurements published in PubChem BioAssay (NCI).
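Growth conditions: 96-well plates. Treatment: test compound, 48 hours, 5 concentrations. Analysis: linear interpolation between bracketing concentrations; unreached endpoints set to highest concentration. GI50 = concentration required for 50% inhibition of growth. TGI: concentration producing complete growth inhibition.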

How the values were obtained:
Assay in all cases: inhibition of tumour cell growth, NCI panel, 48 h
SF-539 CNS = system: SF-539 CNS
UACC-62 melanoma = system: UACC-62 melanoma
SK-MEL-28 melanoma = system: SK-MEL-28 melanoma
HS 578T breast = system: HS 578T breast
MDA-N = system: MDA-N
SK-MEL-5 melanoma = system: SK-MEL-5 melanoma
MOLT-4 leukemia = system: MOLT-4 leukemia
A498 renal = system: A498 renal
SR leukemia = system: SR leukemia
UO-31 renal = system: UO-31 renal
786-0 renal = system: 786-0 renal
SK-OV-3 ovarian = system: SK-OV-3 ovarian
T-47D breast = system: T-47D breast
HCT-15 colon = system: HCT-15 colon
OVCAR-8 ovarian = system: OVCAR-8 ovarian
NCI-H460 lung = system: NCI-H460 lung
OVCAR-5 ovarian = system: OVCAR-5 ovarian
HL-60(TB) leukemia = system: HL-60(TB) leukemia
U251 CNS = system: U251 CNS
CAKI-1 renal = system: CAKI-1 renal
NCI-H522 lung = system: NCI-H522 lung
RXF 393 renal = system: RXF 393 renal
UACC-257 melanoma = system: UACC-257 melanoma
SNB-75 CNS = system: SNB-75 CNS
A549 NSCLC = system: A549 NSCLC
TK-10 renal = system: TK-10 renal
HCC-2998 colon = system: HCC-2998 colon
COLO 205 colon = system: COLO 205 colon
OVCAR-4 ovarian = system: OVCAR-4 ovarian
ACHN renal = system: ACHN renal
MCF7 breast = system: MCF7 breast
HCT-116 colon = system: HCT-116 colon
M14 melanoma = system: M14 melanoma
SN12C renal = system: SN12C renal
NCI-H322M lung = system: NCI-H322M lung
SK-MEL-2 melanoma = system: SK-MEL-2 melanoma
DU-145 prostate = system: DU-145 prostate
K-562 leukemia = system: K-562 leukemia
OVCAR-3 ovarian = system: OVCAR-3 ovarian
SNB-19 CNS = system: SNB-19 CNS
NCI/ADR-RES ovarian = system: NCI/ADR-RES ovarian
HOP-92 NSCLC = system: HOP-92 NSCLC
PC-3 prostate = system: PC-3 prostate
EKVX NSCLC = system: EKVX NSCLC
MDA-MB-231 breast = system: MDA-MB-231 breast
MDA-MB-435 = system: MDA-MB-435
IGROV1 ovarian = system: IGROV1 ovarian
SF-268 CNS = system: SF-268 CNS
MALME-3M melanoma = system: MALME-3M melanoma
RPMI-8226 leukemia = system: RPMI-8226 leukemia
NCI-H23 lung = system: NCI-H23 lung
SW-620 colon = system: SW-620 colon
CCRF-CEM leukemia = system: CCRF-CEM leukemia
KM12 colon = system: KM12 colon
LOX IMVI melanoma = system: LOX IMVI melanoma
SF-295 CNS = system: SF-295 CNS
HT29 colon = system: HT29 colon
BT-549 breast = system: BT-549 breast
NCI-H226 lung = system: NCI-H226 lung
HOP-62 NSCLC = system: HOP-62 NSCLC

## CC(=O)Nc1ccc([As](=O)(O)O)cc1
SF-539 CNS
  GI50: > 100 µM
  TGI: > 100 µM
UACC-62 melanoma
  GI50: > 100 µM
  TGI: > 100 µM
SK-MEL-28 melanoma
  GI50: > 100 µM
  TGI: > 100 µM
HS 578T breast
  GI50: > 100 µM
  TGI: > 100 µM
MDA-N
  GI50: > 100 µM
  TGI: > 100 µM
SK-MEL-5 melanoma
  GI50: > 100 µM
  TGI: > 100 µM
MOLT-4 leukemia
  GI50: > 100 µM
  TGI: > 100 µM
A498 renal
  GI50: > 100 µM
  TGI: > 100 µM
SR leukemia
  GI50: > 100 µM
  TGI: > 100 µM
UO-31 renal
  GI50: > 100 µM
  TGI: > 100 µM
786-0 renal
  GI50: > 100 µM
  TGI: > 100 µM
SK-OV-3 ovarian
  GI50: > 100 µM
  TGI: > 100 µM
T-47D breast
  GI50: > 100 µM
  TGI: > 100 µM
HCT-15 colon
  GI50: > 100 µM
  TGI: > 100 µM
OVCAR-8 ovarian
  GI50: > 100 µM
  TGI: > 100 µM
NCI-H460 lung
  GI50: > 100 µM
  TGI: > 100 µM
OVCAR-5 ovarian
  GI50: > 100 µM
  TGI: > 100 µM
HL-60(TB) leukemia
  GI50: > 100 µM
  TGI: > 100 µM
U251 CNS
  GI50: > 100 µM
  TGI: > 100 µM
CAKI-1 renal
  GI50: > 100 µM
  TGI: > 100 µM
NCI-H522 lung
  GI50: > 100 µM
  TGI: > 100 µM
RXF 393 renal
  GI50: > 100 µM
  TGI: > 100 µM
UACC-257 melanoma
  GI50: > 100 µM
  TGI: > 100 µM
SNB-75 CNS
  GI50: > 100 µM
  TGI: > 100 µM
A549 NSCLC
  GI50: > 100 µM
  TGI: > 100 µM
TK-10 renal
  GI50: > 100 µM
  TGI: > 100 µM
HCC-2998 colon
  GI50: > 100 µM
  TGI: > 100 µM
COLO 205 colon
  GI50: > 100 µM
  TGI: > 100 µM
OVCAR-4 ovarian
  GI50: > 100 µM
  TGI: > 100 µM
ACHN renal
  GI50: > 100 µM
  TGI: > 100 µM
MCF7 breast
  GI50: > 100 µM
  TGI: > 100 µM
HCT-116 colon
  GI50: > 100 µM
  TGI: > 100 µM
M14 melanoma
  GI50: > 100 µM
  TGI: > 100 µM
SN12C renal
  GI50: > 100 µM
  TGI: > 100 µM
NCI-H322M lung
  GI50: > 100 µM
  TGI: > 100 µM
SK-MEL-2 melanoma
  GI50: > 100 µM
  TGI: > 100 µM
DU-145 prostate
  GI50: > 100 µM
  TGI: > 100 µM
K-562 leukemia
  GI50: > 100 µM
  TGI: > 100 µM
OVCAR-3 ovarian
  GI50: > 100 µM
  TGI: > 100 µM
SNB-19 CNS
  GI50: > 100 µM
  TGI: > 100 µM
NCI/ADR-RES ovarian
  GI50: > 100 µM
  TGI: > 100 µM
HOP-92 NSCLC
  GI50: > 100 µM
  TGI: > 100 µM
PC-3 prostate
  GI50: > 100 µM
  TGI: > 100 µM
EKVX NSCLC
  GI50: > 100 µM
  TGI: > 100 µM
MDA-MB-231 breast
  GI50: > 100 µM
  TGI: > 100 µM
MDA-MB-435
  GI50: > 100 µM
  TGI: > 100 µM
IGROV1 ovarian
  GI50: > 100 µM
  TGI: > 100 µM
SF-268 CNS
  GI50: > 100 µM
  TGI: > 100 µM
MALME-3M melanoma
  GI50: > 100 µM
  TGI: > 100 µM
RPMI-8226 leukemia
  GI50: > 100 µM
  TGI: > 100 µM
NCI-H23 lung
  GI50: > 100 µM
  TGI: > 100 µM
SW-620 colon
  GI50: > 100 µM
  TGI: > 100 µM
CCRF-CEM leukemia
  GI50: > 100 µM
  TGI: > 100 µM
KM12 colon
  GI50: > 100 µM
  TGI: > 100 µM
LOX IMVI melanoma
  GI50: > 100 µM
  TGI: > 100 µM
SF-295 CNS
  GI50: > 100 µM
  TGI: > 100 µM
HT29 colon
  GI50: > 100 µM
  TGI: > 100 µM
BT-549 breast
  GI50: > 100 µM
  TGI: > 100 µM
NCI-H226 lung
  GI50: > 100 µM
  TGI: > 100 µM
HOP-62 NSCLC
  GI50: > 100 µM
  TGI: > 100 µM
